By IC50 is commonly meant the concentration at which inhibition is half-maximal. The low end stands for greater potency, the high end for weaker potency.

Molecules are shown by their SMILES.

We go through one molecule from patent publication US9687569B2, “Theranostic nanoparticle and methods for making and using the nanoparticle” (priority 2012, dated 2017).

For this assay, the system named is C6-ADR cells. Briefly: Dose-response, Alamar Blue cell viability assay. To be noted: DOX dose. (Alamar Blue is a resazurin reagent that responds to reducing activity.)

As for `COc1cccc2c1C(=O)c1c(O)c3c(c(O)c1C2=O)C[C@@](O)(C(=O)CO)C[C@@H]3O[C@H]1C[C@H](N)[C@H](O)[C@H](C)O1.Cl` [free DOX, Doxorubicin.HCl], the IC50 is, setting by setting: (24 h after treatment) 0.748 ± 0.146 µg/mL; (72 h after treatment) 1.102 ± 0.105 µg/mL.
